Experimental data published in patent publication US9763957B2, “Autotaxin inhibitors” (Novartis AG, priority 2013, dated 2017).

Each compound was assayed against Recombinant human ATX (Homo sapiens (Human), UniProt Q13822) (assay: ATX inhibition assay (choline release, Amplex Red fluorescence)). Details: ATX 10 nM, LPC 18:1 10 μM, 37° C., 20 min pre-incubation; mean of n≧2.
Type: biochemical
Description: Reagents—LPC (oleoyl (18:1)) was purchased from Avanti Polar Lipids (Alabaster, Ala.) and solubilized in methanol to 20 mM. Amplex Red was obtained from Invitrogen Life Technologies (Paisley, UK) and dissolved in DMSO to 10 mM. Choline oxidase and horseradish peroxidase (HRP) were obtained from Sigma Aldrich (Dorset, UK) and dissolved in HBSS to 20 U/ml and 200 U/ml respectively. All reagents were stored at −20° C. in single use aliquots. All experimental measurements were performed in assay buffer made up immediately prior to use (HBSS, 0.01% BSA essentially fatty acid free).
PerkinElmer EnVision (Fluorescence Intensity/Absorbance Monochromator) or Tecan Infinite 200 PRO series plate reader was used to detect change in fluorescent intensity.
Assessing ATX inhibition—ATX activity was determined by measurement of released choline in reactions containing ATX (10 nM), choline oxidase (0.1 U/ml), HRP (100 U/ml), amplex red (50 μM) and LPC 18:1 (10 μM). Compounds of the invention were prepared as 10 point serial dilutions from 1 μM in duplicate and pre-incubated with ATX at 37° C. for 20 minutes prior to the addition of remaining reagents. The liberated choline was measured from changes in fluorescence intensity (λex 530 nm, λem 590 nm) of the product resurofin at 37° C. every 2 minutes over a 40-minute period. ATX activity was measured as a slope of the linear portion of the progress curve, typically between 14 to 24 minutes.
Data analysis—Slope data was exported to Graphpad prism (Graphpad software, San Diego, Calif.) where data was fitted to equation 1. Y=Bottom+(Top-Bottom)/(1+10^((Log IC50−X)*HillSlope)) Equation 1: […]

| Compound | IC50 |
| --- | --- |
| COC1CCCN(C(=O)/C=C/c2ccc(C(F)(F)F)cc2Cn2nnc(C)n2)C1 (single isomer, unassigned) [Example 108a, ((R or S), E)-1-(3-Methoxypiperidin-1-yl)-3-(2-((5-methyl-2H-tetrazol-2-yl)methyl)-4-(trifluoromethyl)phenyl)prop-2-en-1-one] | 58 nM |
| COC1CCCN(C(=O)/C=C/c2ccc(C(F)(F)F)cc2Cn2nnc(C)n2)C1 (single isomer, unassigned) [Example 108b, ((R or S), E)-1-(3-Methoxypiperidin-1-yl)-3-(2-((5-methyl-2H-tetrazol-2-yl)methyl)-4-(trifluoromethyl)phenyl)prop-2-en-1-one] | 61 nM |
| Cc1nnn(Cc2cc(C(F)(F)F)ccc2/C=C/C(=O)N2CCCC(F)C2)n1 (single isomer, unassigned) [Example 115a, ((R or S), E)-1-(3-Fluoropiperidin-1-yl)-3-(2-((5-methyl-2H-tetrazol-2-yl)methyl)-4-(trifluoromethyl)phenyl)prop-2-en-1-one] | 18 nM |
| Cc1nnn(Cc2cc(C(F)(F)F)ccc2/C=C/C(=O)N2CCCC(F)C2)n1 (single isomer, unassigned) [Example 115b, ((R or S), E)-1-(3-Fluoropiperidin-1-yl)-3-(2-((5-methyl-2H-tetrazol-2-yl)methyl)-4-(trifluoromethyl)phenyl)prop-2-en-1-one] | 140 nM |
